Measured values published in PubChem BioAssay (NCI).
The list shows a part of the results, in another mix than the full data. Some salts and complexes are drawn in separate pieces, as the source files them; their charges need not balance. Activity calls are given as the source filed them. Cut-off read from the data, not from the text of the source: active = growth inhibition above about 70%; inactive = the rest.

Legend:
[1] = NCI Yeast Anticancer Drug Screen. Data for the rad50 strain (AID 155);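 note: 0% = growth of vehicle-only cultures of the same strain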; conditions: S. cerevisiae rad50 strain growth inhibition; at 50.0 µM; hits give high values
[2] = NCI Yeast Anticancer Drug Screen. Data for the mec2-1 strain (AID 157); conditions: S. cerevisiae mec2-1 strain, at 50.0 µM, hits give high values
[3] = NCI Yeast Anticancer Drug Screen. Data for the sgs1 mgt1 strain (AID 161);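 note: 0% = growth of cultures given vehicle only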; conditions: S. cerevisiae sgs1 mgt1 strain, at 50.0 µM, hits give high values
[4] = NCI Yeast Anticancer Drug Screen. Data for the cln2 rad14 strain (AID 165);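 note: 0% = growth equal to vehicle treated cultures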; conditions: S. cerevisiae cln2 rad14 strain, at 50.0 µM, hits give high values
[5] = NCI Yeast Anticancer Drug Screen. Data for the bub3 strain (AID 167); conditions: S. cerevisiae bub3 mutant strain, at 50.0 µM, hits give high values
[6] = NCI Yeast Anticancer Drug Screen. Data for the mlh1 rad18 strain (AID 175); conditions: S. cerevisiae mlh1 rad18 strain growth inhibition; at 50.0 µM; hits give high values

Measured: growth inhibition

CCCCCCC(C)NCC(C)(C)O.O=[N+]([O-])c1cc([N+](=O)[O-])c(O)c([N+](=O)[O-])c1
inactive: [1] 47.5% | [2] -2.3% | [3] 35% | [4] -14.8% | [5] 3.9% | [6] 18.6%

CC(C)CCCC(C)CN(C)CC(C)O.O=[N+]([O-])c1cc([N+](=O)[O-])c(O)c([N+](=O)[O-])c1
inactive: [1] 38.1% | [2] 2.2% | [3] 39.5% | [4] -16.7% | [5] 2.35% | [6] 17.6%

ClCCN(CCCl)c1cccc(CN2CCCC2)c1.O=[N+]([O-])c1cc([N+](=O)[O-])c(O)c([N+](=O)[O-])c1
inactive: [1] 19.2% | [2] 3.9% | [3] 38.9% | [4] 38% | [5] 37.5% | [6] 48.8%

CC(C)OP(C)(=O)O.[Eu]
inactive: [1] -6.75% | [2] -10.3% | [3] -1.7% | [4] -29.6% | [5] -3.45% | [6] -9.05%

CCN(CC)CCOC(=O)C(O)(c1ccccc1)c1c(C)c(C)c(C)c(C)c1C (stereo not given)
inactive: [1] 17.3% | [2] -7.3% | [3] 10.8% | [4] -1.5% | [5] -1.55% | [6] 11.8%

CCN=C(N)C(N)=NCC.O=[N+]([O-])c1cc([N+](=O)[O-])c(O)c([N+](=O)[O-])c1
inactive: [1] 30.2% | [2] 6.65% | [3] 27.1% | [4] -10.3% | [5] -0.25% | [6] -5.9%

O=[N+]([O-])c1cccc([N+](=O)[O-])c1
inactive: [1] -15.2% | [2] 2.6% | [3] -7% | [4] -46.4% | [5] -1.25% | [6] 6.5%

O=[N+]([O-])c1cccc([N+](=O)[O-])c1O
inactive: [1] 41.9% | [2] -14.5% | [3] -15.7% | [4] -55.5% | [5] -24.1% | [6] -6.6%

CCSP(N)(=O)CC (stereo not given)
inactive: [1] 6.8% | [2] 32.6% | [3] 0.8% | [4] -13.8% | [5] -29.6% | [6] 16.7%

C[N+]1(CCCCC[N+]2(C)CCCCCC2)CCCCCC1.O=[N+]([O-])c1cc([N+](=O)[O-])c(O)c([N+](=O)[O-])c1
inactive: [1] -6.3% | [2] -2.65% | [3] -9.9% | [4] -11.5% | [5] -4.9% | [6] 0.1%

C1=CN2OC3CCCCC3C2=CO1.O=[N+]([O-])c1cc([N+](=O)[O-])c(O)c([N+](=O)[O-])c1
inactive: [1] -8.85% | [2] 8.3% | [3] -7.1% | [4] -16.9% | [5] 20.9% | [6] -3.4%

C[N+]1(CCCCCC[N+]2(C)CCCCCC2)CCCCCC1.O=[N+]([O-])c1cc([N+](=O)[O-])c(O)c([N+](=O)[O-])c1
inactive: [1] -15.8% | [2] -8.35% | [3] -17.6% | [4] -12.4% | [5] -19.5% | [6] -1.75%

CCCCC(CC)COP(O)OCC(CC)CCCC.[Zn+2] (stereo not given)
inactive: [1] -11.4% | [2] -16.4% | [3] -14.3% | [4] -11.6% | [5] -14.7% | [6] 0.05%

CC(C)OP(C)(=O)O.[Tb]
inactive: [1] -5.05% | [2] -2.45% | [3] 6.3% | [4] -46.6% | [5] -7% | [6] -8.1%

COc1ccc2c(c1)C13CCN(C)C(C2)C1CC(C)=C(C)C3.O=[N+]([O-])c1cc([N+](=O)[O-])c(O)c([N+](=O)[O-])c1 (stereo not given)
inactive: [1] 45% | [2] -0.15% | [3] 24.2% | [4] -13.8% | [5] 6.3% | [6] 23.9%

Cc1ccc([N+](=O)[O-])c2cccnc12.O=[N+]([O-])c1cc([N+](=O)[O-])c(O)c([N+](=O)[O-])c1
inactive: [1] 7.75% | [2] 6.85% | [3] 1.95% | [4] -26.1% | [5] -18.8% | [6] 15.8%

CCCCNCCO.O=[N+]([O-])c1cc([N+](=O)[O-])c(O)c([N+](=O)[O-])c1
inactive: [1] -2.2% | [2] 7.65% | [3] -8% | [4] -39.5% | [5] -10.7% | [6] 5.85%

CCCCC(CCCC)NCCO.O=[N+]([O-])c1cc([N+](=O)[O-])c(O)c([N+](=O)[O-])c1
inactive: [1] 33.8% | [2] -9.35% | [3] 16.6% | [4] -27.6% | [5] 1.15% | [6] 6.25%

O=[N+]([O-])c1cc([N+](=O)[O-])c(O)c([N+](=O)[O-])c1.c1ccc(C2CN2)cc1
inactive: [1] 40% | [2] -2.85% | [3] 27.6% | [4] 19.1% | [5] -6.95% | [6] 25.2%

CN1C(C)(C)CC(O)(c2ccccc2)CC1(C)C.O=[N+]([O-])c1cc([N+](=O)[O-])c(O)c([N+](=O)[O-])c1
inactive: [1] 28.2% | [2] 0.75% | [3] -10.8% | [4] 6.15% | [5] 0.9% | [6] 34.4%

NNC(NN)NN.n1nc(-c2nn[nH]n2)n[nH]1
inactive: [1] -23.3% | [2] -1.5% | [3] 6.15% | [4] 7.55% | [5] 27.4% | [6] 8.75%

CC(C)OP(C)(=O)O.[V]
inactive: [1] 2.95% | [2] 0.6% | [3] 2.25% | [4] -24.9% | [5] -20.1% | [6] 9.35%

CN(C)Cc1cccs1.O=[N+]([O-])c1cc([N+](=O)[O-])c(O)c([N+](=O)[O-])c1
inactive: [1] 3.9% | [2] 11.1% | [3] -0.95% | [4] 7% | [5] -1.55% | [6] -25.6%

CCCCCCCCCCCCOP(=O)(CCC)OCCCCCCCCCCCC
inactive: [1] 28.9% | [2] 19% | [3] 3% | [4] 19.8% | [5] -4.2% | [6] 34.8%

O=[N+]([O-])c1cc([N+](=O)[O-])c(O)c([N+](=O)[O-])c1.OC1CC2CCC(C1)N2
inactive: [1] 4% | [2] -1.1% | [3] 5.3% | [4] -38.5% | [5] -12.8% | [6] 2.7%
